{"source": "patent US3932374A", "about": "“Bleomycinic acid and process for preparing thereof” (Zaidan Hojin Biseibutsu Kagaku Kenkyu Kai, priority 1971, dated 1976)", "system": "ICR-JCL male mice", "details": "10 mg./kg. i.v., 10 days; for Total, mice with degree of fibrosis ++ / Total, mice with degree of fibrosis - / Total, mice with degree of fibrosis ± / Total, mice with degree of fibrosis ± (third Total column): 10 mice", "note": "Read-outs that look alike come from different tables or passages of the source."}
{"substance": "benzylamino-bleomycin", "values": [{"measurement": "Total, mice with degree of fibrosis ++", "setting": "Lung L", "result": 0}, {"measurement": "Total, mice with degree of fibrosis -", "setting": "Lung L", "result": 8}, {"measurement": "Total, mice with degree of fibrosis ±", "setting": "Lung L", "result": 1}, {"measurement": "Total, mice with degree of fibrosis ± (third Total column)", "setting": "Lung L", "result": 1}, {"measurement": "Total, mice with degree of fibrosis ++", "setting": "Lung R", "result": 0}, {"measurement": "Total, mice with degree of fibrosis -", "setting": "Lung R", "result": 7}, {"measurement": "Total, mice with degree of fibrosis ±", "setting": "Lung R", "result": 3}, {"measurement": "Total, mice with degree of fibrosis ± (third Total column)", "setting": "Lung R", "result": 0}, {"measurement": "toxicity compared with bleomycin B2", "setting": "lung fibrosis in mice", "result": "lower"}]}
